In test [1] the target is T1, KB-1753 (synthetic construct, N-terminal FITC label (FITC-KB-1753) in the fluorescence polarization assay; synthetic phage-display peptide. The sequence is not printed here, so it is taken from the Gαi1·GDP·AlF4-/KB-1753 crystal …).
T1 chain: RGYYHGIWVGE
Nature of the test: FP; GDP·AlF4-.

The target in test [2] is T1, KB-1753. Put plainly: FP; GDP.

B1: Gαi1, wild type, full-length, hexahistidine-tagged (natural protein)
chain: MGCTLSAEDKAAVERSKMIDRNLREDGEKAAREVKLLLLGAGESGKSTIVKQMKIIHEAGYSEEECKQYKAVVYSNTIQSIIAIIRAMGRLKIDFGDSARADDARQLFVLAGAAEEGFMTAELAGVIKRLWKDSGVQACFNRSREYQLNDSAAYYLNDLDRIAQPNYIPTQQDVLRTRVKTTGIVETHFTFKDLHFKMFDVGGQRSERKKWIHCFEGVTAIIFCVALSDYDLVLAEDEEMNRMHESMKLFDSICNNKWFTDTSIILFLNKKDLFEEKIKKSPLTICYPEYAGSNTYEEAAAYIQCQFEDLNKRKDTKEIYTHFTCATDTKNVQFVFDAVTDVIIKNNLKDCGLF
Consider B1, for which the Kd with KB-1753 [1] came to 0.47 µM; with KB-1753 [2], 6.7 µM.

The values above are taken from article PMC3285607 (2012).
